Literature values in article PMC3561363, “A Novel Retro-Inverso Peptide Inhibitor Reduces Amyloid Deposition, Oxidation and Inflammation and Stimulates Neurogenesis in the APPswe/PS1ΔE9 Mouse Model of Alzheimer’s Disease” (PLoS ONE, 2013).

Test system: AD patients
Details: results late 2012; cited from earlier work

## Bapineuzumab: Bapineuzumab (Johnson and Johnson)
  effect in AD patients: no significant effect on AD patients
